From US20070155803A1, “Protease inhibitors” (ProZymex A/S, priority 2003, published 2007)

Amino acid sequences for entries named in this document (tags omitted). Residues count along the entry.
UniProt P53634, 395-463 limits assumed: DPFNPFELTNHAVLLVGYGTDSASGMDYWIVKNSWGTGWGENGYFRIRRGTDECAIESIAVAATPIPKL
UniProt P53634, 25-143 limits assumed: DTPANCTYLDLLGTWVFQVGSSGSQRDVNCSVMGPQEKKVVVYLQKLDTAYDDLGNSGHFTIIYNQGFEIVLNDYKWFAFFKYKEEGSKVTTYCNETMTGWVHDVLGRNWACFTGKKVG
UniProt P53634, 231-394 limits assumed: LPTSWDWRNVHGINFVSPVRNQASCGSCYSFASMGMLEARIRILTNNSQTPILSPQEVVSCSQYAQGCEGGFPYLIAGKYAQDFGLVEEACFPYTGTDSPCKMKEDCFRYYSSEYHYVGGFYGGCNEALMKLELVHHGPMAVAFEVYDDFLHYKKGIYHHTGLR

Target: T1, Human DPP-I (Homo sapiens, UniProt P53634)
T1 construct: purchased UniZyme A/S
Test: Human Dipeptidyl Peptidase I (DPP-I) assay, AFC substrate
Assay type: biochemical
Procedure: Human Dipeptidyl Peptidase I (DPP-I) Assay
Using this assay, the IC50 value of a compound of the invention as a DPP-I inhibitor was determined using an AFC substrate.
100 mM sodium phosphate (8.9 g Na2HPO4; M=177.99), 150 mM KCl (5.6 g KCl; M=74.6) and 1.5 mM EDTA (279 mg EDTA; M=372.2) was dissolved in 500 mL H2O, and pH was adjusted to 6.0. Cysteine*HCl (Sigma C-1276; M=157.6), 1 mg/mL assay buffer, corresponding to 6 mM, was added to the solution for activation of the DPP-I enzyme.
Gly-Phe-AFC*TFA (Enzyme Systems Products AFC-033) was used as the substrate for determination of IC50 values. Km was 270 μM. The substrate was solubilized in DMSO to give a 7.5 mM stock solution (2.2 mg of substrate was added to 0.5 mL DMSO).
Human DPP-I (hDDP-I; obtained from UniZyme A/S, DK-2970 Horsholm, Denmark) was stored at −20° C. in a buffer containing 2.5 mM Na-phosphate, 150 mM NaCl, 2 mM cysteamine, 50% glycerol, pH 7.0 at a concentration of 2.5 mg/mL. This stock solution was diluted 200 times in the assay buffer.
Th assay was performed in 96-well plates. […] The excitation wavelength was 400 nm, and the emission was measured at 505 nm for 10 minutes at 37° C. […] In the software (SOFTmax Pro) used for data collection from the fluorometer (Molecular Devices: Gemini XS), it was erisured that the measured slopes were linear (R^2>0.99). […]

SMILES: CC[C@H](N)C(=O)NNC(=O)N[C@@H](CCc1ccccc1)C(=O)N[C@@H](Cc1cccc(F)c1)C(N)=O [Example 11, 1-(2S-2-Aminobutanoyl)-4-[2S-N-[2S-3-(m-fluorophenyl)propan-2-yl-amide]-4-phenylbutan-2-yl-amide]semicarbazide]
- Selective inhibition of DPP-I (in words): selectively inhibit DPP-I
